Measured values taken from US20250381223A1 (UTC THERAPEUTICS SHANGHAI, published 2025).

Target: T1, CD123-Fc recombinant protein (human, UniProt P26951 19-305)
T1 construct: construct not described; not shown: Fc part
T1 sequence (looked up): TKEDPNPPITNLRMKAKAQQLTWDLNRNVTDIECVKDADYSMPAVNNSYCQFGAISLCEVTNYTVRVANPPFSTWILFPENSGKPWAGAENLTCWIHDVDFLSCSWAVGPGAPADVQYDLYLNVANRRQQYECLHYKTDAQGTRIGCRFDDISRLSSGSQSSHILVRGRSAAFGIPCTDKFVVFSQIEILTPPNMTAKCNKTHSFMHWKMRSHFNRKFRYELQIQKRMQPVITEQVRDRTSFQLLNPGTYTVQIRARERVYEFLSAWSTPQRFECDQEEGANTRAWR
Assay: flow cytometry of T cells electroporated with CAR mRNA, stained with CD123-Fc + PE-anti-hIgG-Fc; Mock 0.36
Description: The CD123 CAR mRNAs obtained in Example 35 above were each introduced into T cells by electroporation according to the following procedures: T cells were collected, washed with the Opti-MEM medium, and resuspended at 1×10e⁷/mL with the Opti-MEM medium; 10 μg of RNA and 100 μL of T cells were aliquoted, mixed well, and electroporated under the following parameters (BTX machine): 500 V, 0.7 ms; the cells were then transferred to a pre-warmed medium and cultured at 37° C. The binding of CD123 CART cells to the CD123-Fc recombinant protein was detected by FACS staining. […] Empty vector (Mock) was a control T cell without CAR molecule. A549 tumor cells were electroporated with different amounts of CD123 mRNA. The electroporation procedure was the same as described above, and only the parameters were changed, with the parameters 300 V, 0.5 ms used. CD123 expression in A549 tumor cells was detected by FACS staining of isotype or anti-CD123 antibodies and A549 cells electroporated with different amounts of CD123 mRNA. […] The cytotoxicity of CD123 CART cells against tumor cells was detected in an in vitro cytotoxicity assay. Tumor cells expressing EGFP or EGFP-A549 cells electroporated with different amounts of tumor antigen were seeded at 3000 cells/100 μL/well into a flat-bottom 96-well plate; CART cells were diluted to a proper concentration and seeded to the 100 μL/well tumor cells according to different E/T ratios (e.g., 10:1, 3:1, or 1:1), and the co-culture plate was placed into the IncuCyte S3 machine and scanning parameters were set. After scanning for 3 days, the total green object integrated intensity (GCU×μm²/well) was analyzed to calculate the killing efficiency.

B1: anti-CD123 scFv-C25 (scFv)
scFv: QSALTQPASVSGPPGQSITISCTGTSSDVGGYNYVSWYQQHPGKAPKLMIYDVSNRPSGVSNRFSGSKSGNTASLTISGLQAEDEADYYCSSYTSSSTWVFGGGTKLTVLGGGGSGGGGSGGGGSEVHLVESGGGLVKPGGSLRLSCAASGFTFSNAWMSWVRQAPGKGLEWVGRIKSKTDGGTTDSAAPVKGRFTISRDDSKNTLYLQMNSLKTEDTAVYYCTTYYFYSSGDMTDYWGQGTLVTVSS
notes: On mRNA-electroporated T cells as CAR
  percent of cells in the CD123-Fc positive gate: 63.8%

B2: anti-CD123 scFv-C28 (scFv)
scFv: B1 scFv with P13S, T98N, K106E
notes: as for B1
  percent of cells in the CD123-Fc positive gate: 37.6%

B3: anti-CD123 scFv-C35 (scFv)
scFv: QSVVTQPPSVSAASGQKVTISCSGSSPNIGNNYVSWYQHLPGTAPKLLIYDNNKRPSGIPDRFSGSKSGTSVTLGITGLQTGDEADYYCGTWDSRLNIWVFGGGTKLTVLGGGGSGGGGSGGGGSEVHLVESGGGLVKPGGSLRLSCAASGFTFSNAWMSWVRQAPGKGLEWVGRIKSKTDGGTTDYAAPVKGRFTISRDDSKNTLYLQMNSLKTEDTAVYYCTTEAAGFYYYYYGMDVWGQGTTVTVSS
notes: as for B1
  percent of cells in the CD123-Fc positive gate: 70%

Substitutions are numbered along the chain they refer to.
